Experimental findings from patent US5180716A, “Cyclodextrin complexes for neuraxial administration of drugs” (The Regents of the University of California, priority 1990, dated 1993) are described below.

This experiment can be described thus: antinociceptive effect on the hot plate test after intrathecal injection, rats. The settings on record: rat. A general note: Thermal pain tests record how soon the animal reacts.

SMILES strings stand for the structures.

With `CN1CC[C@]23c4c5ccc(O)c4O[C@H]2[C@@H](O)C=C[C@H]3[C@H]1C5.O=S(=O)(O)O`, the “optimal CDEX concentration yielding the most significant augmentation of antinociceptive effect” value was 0.2%.
